Results reported in patent US12441718B2, “Selective angiotensin II compounds” (VICORE PHARMA AB, priority 2021, dated 2025).
Several values for one entry are separate records, joined by “and”; a condition that tells them apart may be missing. Equal entries are not always repeated.

Target: T1, human recombinant AT2 receptor (Homo sapiens, UniProt P50052)
T1 construct: purchased Eurofins ITEM26 (protocol number)
T1 sequence (P50052 1-363): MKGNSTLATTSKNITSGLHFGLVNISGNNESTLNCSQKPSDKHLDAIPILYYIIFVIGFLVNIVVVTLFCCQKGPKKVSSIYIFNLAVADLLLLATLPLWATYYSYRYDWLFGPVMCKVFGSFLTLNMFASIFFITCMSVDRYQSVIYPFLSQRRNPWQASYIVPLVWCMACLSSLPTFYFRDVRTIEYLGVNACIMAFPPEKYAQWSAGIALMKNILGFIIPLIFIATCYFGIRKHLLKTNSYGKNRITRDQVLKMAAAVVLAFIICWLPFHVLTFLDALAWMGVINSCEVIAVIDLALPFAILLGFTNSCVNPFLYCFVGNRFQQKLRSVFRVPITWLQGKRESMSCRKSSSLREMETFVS
Test: Binding to AT2 receptor, radiometric scintillation assay (Eurofins ITEM26)
Conditions: ligand 125I CGP 42112A, * rows = mean of runs

Ki (seven-point dose-response curve): 6.17 nM and 4.83 nM
IC50 (test compounds at 1, 10, 100 and 1000 nM, read-out: AT2 GraFit IC50): 12.3 nM and 6.96 nM and 9.63 nM
SMILES: CC(C)Cc1ccc(S(=O)(=O)Nc2ncc(C#N)cn2)c(-c2ccc(Cn3ccnc3C(C)(C)C)cc2)c1 [Example 6, 4′-((2-(tert-Butyl)-1H-imidazol-1-yl)methyl)-N-(5-cyanopyrimidin-2-yl)-5-isobutyl-[1,1′-biphenyl]-2-sulfonamide]
